Data reported in PubChem BioAssay AID565 (University of Pittsburgh Molecular Library Screening Center, 2006).
Only a part is listed here, and it is no random draw. Some tests of the compounds listed are not included; inactive here does not mean inactive elsewhere. Activity calls are given as the source filed them. Rule as the data show it: active = inhibition above about 50%; inactive = the rest.

Each compound was assayed against Gag-Pol polyprotein (Human immunodeficiency virus type 1 group M subtype B (isolate HXB2)) (UniProt P04585) (assay: blockers of HIV-1 RNase H RNA/DNA cleavage – biochemical, fluorescence, primary screen (AID 565)). Conditions: RT-RNase H RNA/DNA duplex cleavage, at 10 µM, stronger effect = higher value.

SMILES | inhibition
O=C(OC1CN2CCC1CC2)C(CO)(c1ccccc1)c1ccccc1 (configuration not stated) | inactive: -5.68%
CN(C)c1cccc(C(=O)NCC2(N(C)C)CCCCC2)c1 | inactive: 5.25%
